The entries are a selection whose mix differs from that of the whole data set. Some results for these compounds are left out of this collection, so the calls shown say nothing about other tests. Activity calls are given as the source filed them.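 Rule for the calls: active = inhibition above a set limit, placed 3 SD over the median of all compounds (cut at about 26% in these data); inactive = the rest.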
Assay: rescue of nicotinamide-shortened yeast lifespan – S. cerevisiae, OD615, primary screen (AID 775);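 note: 0% = nicotinamide-treated wells and 100% = cells grown without nicotinamide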
Details: S. cerevisiae growth with nicotinamide, at 10 µM, hits give high values, deaD strain in restrictive glucose medium
Procedure, shortened: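 Test system – modified budding yeast, DeaD strain · Compound – single dose 10 µM compound, 0.25% DMSO · Times – culture preincubation 4 h, compound exposure 48 h, both 30 °C · Detection – optical density (absorbance) at 615 nm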
For `O=C(OC1CN2CCC1CC2)C(CO)(c1ccccc1)c1ccccc1` (stereo not given), the inhibition of the nicotinamide effect was inactive: -9.45%.
In the case of `CN(C)c1cccc(C(=O)NCC2(N(C)C)CCCCC2)c1`, the inhibition of the nicotinamide effect was inactive: -4.12%.
In the case of `CN(C)C1CCCC1OC(=O)C(O)(c1ccccc1)c1ccccc1` (stereo not given), the inhibition of the nicotinamide effect was inactive: 1.78%.
With `CCN1CCCC(OC(=O)C2(O)c3ccccc3C=Cc3ccccc32)C1` (stereo not given) the inhibition of the nicotinamide effect was inactive: 2.84%.
With `CC(C)N1C(=O)CC2(CCN(CCOC(=O)C(O)(c3ccccc3)c3ccccc3)CC2)C1=O` the inhibition of the nicotinamide effect was inactive: -10.8%.
